Results on one compound are retold here after ChEMBL document CHEMBL1140609, “Carbonic anhydrase inhibitors. Inhibition of transmembrane isozymes XII (cancer-associated) and XIV with anions” (Bioorg Med Chem Lett, 2007).

The chains behind the UniProt entries cited, without tags or fusion partners. Residues count along the entry.
UniProt Q9ULX7, 16-337 limits assumed: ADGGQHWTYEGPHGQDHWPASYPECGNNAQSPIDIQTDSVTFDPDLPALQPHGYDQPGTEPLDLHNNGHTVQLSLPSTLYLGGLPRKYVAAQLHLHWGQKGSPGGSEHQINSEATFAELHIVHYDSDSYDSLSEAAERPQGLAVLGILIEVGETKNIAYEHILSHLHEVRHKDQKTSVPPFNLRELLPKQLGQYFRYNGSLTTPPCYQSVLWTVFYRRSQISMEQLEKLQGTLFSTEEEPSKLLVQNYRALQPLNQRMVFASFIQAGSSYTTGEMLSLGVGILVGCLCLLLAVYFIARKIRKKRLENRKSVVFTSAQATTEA

The target of one assay is Carbonic anhydrase 9 (Homo sapiens, UniProt Q16790). Kind of assay: Inhibition of human recombinant catalytic domain CA9.
In another assay the target is Carbonic anhydrase 14 (Homo sapiens, UniProt Q9ULX7). Kind of assay: Inhibition of human recombinant full length CA14.

On to `O=[As](O)(O)c1ccccc1`, for which the Ki is 55 µM on Carbonic anhydrase 9 and 84 µM on Carbonic anhydrase 14.
